From patent publication US11826344B2, “Composition, method of manufacture, and use of site-specific delivery of bruceolides for treatment of cancer and other diseases” (HOWARD UNIVERSITY, priority 2015, dated 2023)

Tested on: Prostate cancer lines PC3 and LNCaP
Assay: Preliminary cytotoxicity study of brusatol solution on prostate cancer cell lines (FIG. 1)
Type: cell-based, human
Conditions: broad range of concentrations, 72 hours
Method: Due to its mechanism of action as a protein synthesis inhibitor, the inventor conducted an investigation into the efficacy of brusatol to inhibit prostate cancer cell line synthesis. Prostate cancer lines PC3 and LNCaP were cultivated in the presence of 1 nM, 100 nM, 1,000 nM and 10,000 nM concentrations of brusatol and 0.1% DMSO as a control.
The human prostate cancer cell lines, PC3 and LNCaP, were obtained from American Type Culture Collection (Manassas, VA). The PC3 and LNCaP cell lines were maintained in RPMI 1640 supplemented with 10% (v/v) FBS and 100 U/mL of penicillin G and 100 µg/mL of streptomycin sulfate. The cells were maintained as a monolayer in an incubator at 37° C. in a humid atmosphere with 5% CO2.

Brusatol was tested, and the “cytotoxicity (in words)” value was “toxicity to both prostate cancer cell lines”.
